Data on 1 substance can be found in patent publication US11413261B2, “Pharmaceutical composition for treating cancer comprising lactate metal salt” (METIMEDI PHARMACEUTICALS CO., LTD, priority 2014, dated 2022).

This experiment deals with human breast cancer cell line (MCF-7) showing a resistance to Trastuzumab. The experiment in a line: Colony-forming ability, Trastuzumab in combination with calcium lactate (6-well plates). The experiment is classed as cell-based. The conditions noted are these: Trastuzumab-resistant MCF-7; 0.23, 0.45, 1.8 μg/ml Trastuzumab alone; vs control. The method, then: Human breast cancer cell line (MCF-7) with the cell number of 1×10^3 cells showing a resistance to an anticancer drug Trastuzumab were seeded into an RPMI1640 medium (including 1% fetal bovine serum+500 ng/μl epithelial growth factor) in each of the 6-well plates. After one day, the medium was replaced with fresh medium and the cells were treated with 2.5 mM calcium lactate or 0.23 μg/ml, 0.45 μg/ml, and 1.8 μg/ml Trastuzumab alone or treated with various concentrations (0.23 μg/ml, 0.45 μg/ml, and 1.8 μg/ml) of Trastuzumab in combination with 2.5 mM calcium lactate. Then, the colony-forming abilities of the cells were compared. In this case, a human breast cancer cell line (MCF-7) untreated with any drug was used as a control group (FIGS. 54a and 54b).

As for Trastuzumab [reference compound], the colony-forming ability entry is recorded as “little difference”.
